Among the data in patent publication US20210324074A1 (US Dept. of Health and Human Services, published 2021) are Kd values, retold here.

The target of this assay is T1, CD22 ECD-Fc fusion protein (UniProt P20273 20-687, limits assumed).
T1 construct: extracellular domain; also called CD22-Fc; not shown: Fc part
In words: SPR, BIAcore X100; CD22 ECD-Fc amine-coupled to the chip, scFv as analyte (0.32-200 nM per paragraph 213), fitted model. (In general: SPR reads the build-up and loss of mass on a sensor chip optically.)

A word on the Kd: it is the constant that tells how readily two partners part at equilibrium. A high value points to a looser complex. Take M971 G4S (scFv): the dissociation constant (Kd) was determined as 3.1 nM.
